From patent US20260384765A1, “ANTHRANILATE SYNTHASE MUTANT AND USE THEREOF” (published 2026)

Legend:
[1] = molecular target: TrpE (S40M/S94N) (anthranilate synthase mutant) (Escherichia coli, UniProt P00895, S40M/S94N); experiment: Determination of tryptophan inhibition curves, TrpE (S40M/S94N); conditions: role: inhibitor, with reference to Examples 2 and 3 (substrate chorismate 300 μM; pH 9.0; 30 °C)
Procedure: (§1) Experimental steps: a reaction buffer was prepared to contain 100 mM NH4Cl, 10 mM MgCl2, 20 mM Tris-HCl, and 0.1 mM ethylenediaminetetraacetic acid (EDTA), and the pH was adjusted to 9.0. 50 ml of the buffer was prepared into an 8 g/L tryptophan buffer, and the pH was adjusted to 9.0. The buffers prepared in the previous two steps were mixed in proportion to obtain tryptophan buffers having different concentrations. In a completely black, opaque microplate, 200 μl of tryptophan buffers having different concentrations were added, and the mutant enzyme solution prepared in Example 2 was added to a final concentration of 0.1 μM, followed by incubation at 30 °C for 10 min. […] A fluorescence microplate reader was used to measure the fluorescence value at 400 nm after excitation at 320 nm, with detection performed once every ten seconds. The microplate reader automatically plotted a curve of fluorescence value over time. The concentration of the reaction product anthranilate and the fluorescence value were in a linear relationship when the anthranilate concentration was within 0-50 μM. The initial slope of the curve plotted by the microplate reader when the tryptophan concentration was 0 was defined as enzyme activity=1.0, and the ratio of the slope under different tryptophan concentrations to the slope without feedback inhibition was defined as relative enzyme activity. […]

[2] = molecular target: TrpE (S40M) (anthranilate synthase mutant) (Escherichia coli, UniProt P00895, S40M); experiment: Determination of tryptophan inhibition curves, TrpE (S40M); conditions: role: inhibitor, substrate chorismate 300 μM, pH 9.0
Procedure: Experimental steps: a reaction buffer was prepared to contain 100 mM NH4Cl, 10 mM MgCl2, 20 mM Tris-HCl, and 0.1 mM ethylenediaminetetraacetic acid (EDTA), and the pH was adjusted to 9.0. 50 ml of the buffer was prepared into an 8 g/L tryptophan buffer, and the pH was adjusted to 9.0. The buffers prepared in the previous two steps were mixed in proportion to obtain tryptophan buffers having different concentrations. In a completely black, opaque microplate, 200 μl of tryptophan buffers having different concentrations were added, and the mutant enzyme solution prepared in Example 2 was added to a final concentration of 0.1 μM, followed by incubation at 30 °C for 10 min. Chorismate at a final concentration of 300 μM (large excess) was added to initiate the reaction. A fluorescence microplate reader was used to measure the fluorescence value at 400 nm after excitation at 320 nm, with detection performed once every ten seconds. The microplate reader automatically plotted a curve of fluorescence value over time. The concentration of the reaction product anthranilate and the fluorescence value were in a linear relationship when the anthranilate concentration was within 0-50 μM. The initial slope of the curve plotted by the microplate reader when the tryptophan concentration was 0 was defined as enzyme activity=1.0, and the ratio of the slope under different tryptophan concentrations to the slope without feedback inhibition was defined as relative enzyme activity. The inhibition constant Ki value was calculated by fitting using the formula Y=(1−((((Et+X+(Ki*(1+(S/Km))))−(((Et+X+(Ki*(1+(S/Km))))^2)−4*Et*X)^0.5))/(2*Et))), wherein Y is enzyme activity, Et is enzyme concentration, X is inhibitor concentration, S is substrate concentration, and Km is the Michaelis constant of the enzyme.

[3] = molecular target: TrpE (S40F) (anthranilate synthase mutant) (Escherichia coli, UniProt P00895, S40F); experiment: Determination of tryptophan inhibition curves, TrpE (S40F); conditions: role: inhibitor, substrate chorismate 300 μM, enzyme 0.1 μM, pH 9.0, 30 °C
Procedure: as §1

[4] = molecular target: wild-type TrpE (anthranilate synthase) (Escherichia coli, UniProt P00895); experiment: Determination of tryptophan inhibition curves, wild-type TrpE; conditions: role: inhibitor, substrate chorismate 300 μM, enzyme 0.1 μM, pH 9.0, 30 °C
Procedure: as §1

N[C@@H](Cc1c[nH]c2ccccc12)C(=O)O was tested, and the “feedback inhibition constant Ki of tryptophan” value (from here on “feedback inhibition constant Ki”) [1] was 0.5872 g/L, the “Ki for inhibition by tryptophan relative to that of S40F” value ([2]; S40M vs S40F) was “about 1.7 times” and the “increase of inhibition constant Ki for tryptophan compared with the wild type” value ([2]; S40M vs wild type) was “more than 400 fold”. The “feedback inhibition constant Ki” value ([2]; S40M, enzyme 0.1 μM, 30 °C) was 0.4579 g/L, the “feedback inhibition constant Ki” value [3] was 0.2752 g/L and the “feedback inhibition constant Ki” value [4] was 1.1 µg/mL.
